Test results: patent US20210363204A1

Molecular target: human Nav1.6, Q9UQD0
Details: chains peptide; modification not given

B1: recombinant Protoxin-II (peptide)
chain: GPYCQKWMWTCDSERKCCEGMVCRLWCKKKLW
IC50: 2.2 nM
